Here are results for 2 compounds from US7897627B2, “Heteroaryl derivatives as orexin receptor antagonists” (Hoffmann-La Roche Inc., priority 2007, dated 2011).

Protein sequences, listed by entry. Tags and fused reporters are not part of them.
UniProt O43614, whole entry: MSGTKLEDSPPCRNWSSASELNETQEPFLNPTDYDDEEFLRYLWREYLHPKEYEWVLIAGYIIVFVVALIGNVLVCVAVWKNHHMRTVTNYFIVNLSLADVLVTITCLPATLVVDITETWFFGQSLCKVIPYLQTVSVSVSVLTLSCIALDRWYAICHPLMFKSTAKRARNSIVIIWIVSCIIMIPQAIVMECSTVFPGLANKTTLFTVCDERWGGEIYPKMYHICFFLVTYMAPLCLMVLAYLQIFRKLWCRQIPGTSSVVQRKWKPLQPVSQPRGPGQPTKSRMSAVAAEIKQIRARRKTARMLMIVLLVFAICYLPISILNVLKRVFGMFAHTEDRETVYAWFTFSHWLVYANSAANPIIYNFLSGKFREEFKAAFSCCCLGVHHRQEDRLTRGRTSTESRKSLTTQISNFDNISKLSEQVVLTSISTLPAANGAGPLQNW

This assay concerns the target human orexin-2 (hOX2) receptor (Homo sapiens, UniProt O43614). The assay is described as follows: Intracellular Ca2+ mobilization assay (FLIPR), CHO(dHFr-) cells expressing hOX2, orexin-A as agonist. As to conditions: read-out: Kb (μM) OX2R (human), antagonist Kb=IC50/(1+[A]/EC50), orexin-A at EC80, antagonist applied 25 min before agonist. Here is the method:
Intracellular Ca^2+ Mobilization Assay
The Chinese Hamster Ovary (dHFr-) mutant cell line stably expressing human orexin-1 (hOX1) or human orexin-2 (hOX2) receptors were maintained in Dulbecco's Modified Eagle Medium (1×) with GlutaMax™1, 4500 mg/L D-Glucose and Sodium Pyruvate (Catalog No. 31966-021, Invitrogen, Carlsbad, Calif.), 5% dialyzed fetal calf serum (Catalog No. 26400-044), 100 μg/ml penicillin and 100 μg/ml streptomycin. The cells were seeded at 5×10^4 cells/well in the poly-D-lysine treated, 96-well, black/clear-bottomed plates (Catalog No. BD356640, BD Biosciences, Palo Alto, Calif.). […] The cells were washed five times with FLIPR buffer to remove excess dye and intracellular calcium mobilization, [Ca^2−]i were measured using a Fluorometric Imaging Plate Reader (FLIPR-96, Molecular Devices, Menlo Park, Calif.) as described previously (Malherbe et al., Mol. Pharmacol., 64, 823-832, 2003). […] The EC50 and EC80 values of orexin-A were measured daily from standard agonist concentration-response curves in CHO(dHFr-)-OX1R and -OX2R cell lines. […] Inhibition curves were determined by addition of 11 concentrations (0.0001-10 μM) of inhibitory compounds and using EC80 value of orexin-A as agonist (a concentration which gave 80% of max agonist response, determined daily). […]
On the technique in general: A change in cytosolic calcium serves as a functional read-out for many receptors and channels.

For `COc1cccc(OC)c1C(=O)N1CC[C@@H](Nc2nc3cc(F)cc(F)c3s2)C1`, the Kb turned out to be 0.0144 µM. As for `COc1cccc(OC)c1C(=O)N1CC[C@@H](Nc2nc3ccc(F)cc3s2)C1`, the figure is 0.0031 µM.
